Reference: patent US20240024346A1, “CD73 INHIBITORS AND PHARMACEUTICAL USES THEREOF” (RISEN (SUZHOU) PHARMA TECH CO., LTD., priority 2020, published 2024)

Tested on: human T cell
Experiment: CD73 cellular assay (T cell stimulation assay: CellTiter-Glo proliferation and IFN-γ ELISA)
Format: cell-based
Details: human T cells, anti-CD3/CD28, AMP + EHNA, 72 hours; read-out: EC50 IFN-γ (ELISA, indicator for T-cell activity)
Protocol: Day 2, human T cell seeding: (a) washing the coated plate (from Day 1) with sterilized PBS buffer (2×100 uL); (b) re-suspending T cells and adjusting cell density to 0.5×10^6 cells/mL with growth media (X-VIVO 15+1% Pen/strep+1% glutamine), and seeding 100 μL/well (50,000 cells/well) in 96-well plates; (c) diluting CD28 antibody for 8× working concentration (8 μg/mL) with growth media, giving 1 μg/mL of the final concentration, followed by addition of CD28 antibody (25 μL) to cell plate; incubating the plates under 5% CO2 at 37° C. for 60 min; (d) adding compound (25 μL, 8×dilution with growth media) to cell plate, and incubating the plates under 5% CO2 at 37° C. for 60 min; (e) adding AMP (25 μL) and EHNA (25 μL, 8×dilution with growth media) to cell plate; (f) incubating the plates under 5% CO2 at 37° C. for 72 hours. […]

Question: `C[C@H](Nc1cc(Cl)nc2c1cnn2[C@@H]1O[C@H](COP(=O)(O)CP(=O)(O)O)[C@@H](O)[C@H]1O)c1ccccc1F` [Compound a, AB680, reference compound] was tested. Which EC50 did it give?
Answer: 0.0349 µM
